# Binding of CDR-mutated scFvs to a peptide of the spike HR2 region

All variants were tested on one target, the spike HR2 peptide PDVDLGDISGINAS (SARS-CoV-2).

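Phage display of a naive human antibody library on the peptide gave the parent. These sequences belong to a second round, designed from the earlier measurements on random variants of the parent. Several design methods are mixed in this list. The scFvs were displayed on barcoded MATa yeast, the peptide on MATalpha yeast. Binding brings cells together so that they mate, and sequencing counts the barcode pairs among the diploids. Each replicate has its own calibration line, from reference interactions of the BCL2 family. Mating was done six times.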

The variants keep the light chain, the linker and the frameworks of Ab-14 (scFv order VH, three GGGGS repeats, VL).
VH: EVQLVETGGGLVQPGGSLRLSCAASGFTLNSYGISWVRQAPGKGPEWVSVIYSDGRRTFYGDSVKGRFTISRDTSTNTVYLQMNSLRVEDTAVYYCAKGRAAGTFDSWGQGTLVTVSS
VL: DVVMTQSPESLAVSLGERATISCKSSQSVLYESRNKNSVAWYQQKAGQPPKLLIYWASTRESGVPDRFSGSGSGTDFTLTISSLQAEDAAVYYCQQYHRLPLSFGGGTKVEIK

Positions count from residue 1 of the parent VH; T28D puts D in place of T. Variants here have at most six changes. Kd is apparent (estimated from mating counts) and averaged on the log scale over replicates with a signal. Smaller is tighter. Where no diploid with the target was found in any replicate, the entry reads "nd": below detection, most likely a poor binder, though not proof of it. Nonspecific signal, from three strains lacking the peptide, appeared in 1% of pairings of all heavy chain designs, centred on 120 nM (5% of these signals below 7.0 nM); values are not corrected for it. Of ten entries with the parent sequence, four were seen in most replicates (averages 2.2 nM to 240 nM), three in one and three in none, so single entries are noisy. Values of this round are not directly comparable with the first-round values of the same sequences. The authors averaged sequences with at least three values out of six and counted those with two or fewer as poor binders.

| changes | Kd (apparent) | replicates with signal |
|---|---|---|
| T28D S31A R100E | 640 pM | 6 of 6 |
| T28Q S31M A101T | 38 nM | 6 of 6 |
| S31M S63D | 94 nM | 4 of 6 |
| S31E S53A G61K V64F R100W | 5.3 nM | 6 of 6 |
| T104S D106R S107T | nd | 0 of 6 |
| T28D R56M A102I T104A | nd | 0 of 6 |
| T28D T58A A101E | 1.7 nM | 6 of 6 |
| S31D R56Q A101T | 770 pM | 6 of 6 |
| S31E A101E S107A | 1.6 nM | 6 of 6 |
| S31E T58A G61T A101F | 6.6 nM | 6 of 6 |
| T28P A101W D106T S107Q | 360 nM | 1 of 6 |
| T28E G61K A101T S107Q | 8.6 nM | 5 of 6 |
| T28N G61S S63R R100Q A101T | 2.7 nM | 6 of 6 |
| T28Q G61A R100Q A101T | 2.2 nM | 6 of 6 |
| S31D R56L R100Y G103L D106I | nd | 0 of 6 |
| F27N T28V | 140 nM | 3 of 6 |
| I51M G61L R100L D106H S107L | nd | 0 of 6 |
| F27E S31D Y32H F59Q | nd | 0 of 6 |
| F27Q S31E F59R G61T A101P | 1.5 µM | 2 of 6 |
| N30M S31D F59Q G61I | 8.7 nM | 4 of 6 |
| T28S S31Q G61V | 540 pM | 2 of 6 |
| G33S R100Q F105A | nd | 0 of 6 |
| T28S S31E G61M S63D A101T | 570 pM | 6 of 6 |
| T28N R56K | 8.4 nM | 6 of 6 |
| T28S S31E G61K R100E | 5.0 nM | 6 of 6 |
| N30E D106T S107M | 26 nM | 1 of 6 |
| I34H G61Q G99R | nd | 0 of 6 |
| N30E A101L F105Y | nd | 0 of 6 |
| T58V F105S | 38 nM | 1 of 6 |
| S31E A101Q S107D | 260 nM | 6 of 6 |
| T28E G61A A101H | 11 nM | 6 of 6 |
| S31Q R56Q G61S T104K | nd | 0 of 6 |
| G61I D106S S107L | nd | 0 of 6 |
| N30E G61S D106S | 3.3 nM | 1 of 6 |
| T28D G61A S63D R100Q | 7.8 nM | 6 of 6 |
| T28D R56C A101T | 4.8 nM | 6 of 6 |
| T28E R100E S107D | 5.9 nM | 6 of 6 |
| S31E G61S K65R G103L T104Q | 730 nM | 1 of 6 |
| A101V S107F | 21 nM | 1 of 6 |
| S53A S63Q A101T | 4.6 nM | 6 of 6 |
| G33D S53A A101L | 2.1 nM | 6 of 6 |
| R56K R100Q A101T | 6.4 nM | 6 of 6 |
| A102S T104H | nd | 0 of 6 |
| N30K R100K A101L | 330 nM | 2 of 6 |
| T28D R100Q A101E S107N | 960 pM | 6 of 6 |
| N30G G61D R100V D106I | nd | 0 of 6 |
| T28S F59A S107A | 260 pM | 5 of 6 |
| T28D S63P R100K A101T S107A | 1.7 nM | 6 of 6 |
| T28D S31Q I34Y | nd | 0 of 6 |
| T28E G61A R100Q A101T S107A | 2.9 nM | 6 of 6 |
| S31D D62Q A102S S107M | nd | 0 of 6 |
| I34G F59A A101K | nd | 0 of 6 |
| R56K G61A R100H S107G | 17 nM | 6 of 6 |
| T28S S31E Y32M G61T A101F | 1.6 nM | 6 of 6 |
| S31E R56Q G61S T104R | nd | 0 of 6 |
| G26M T28S S31E R100Q A101T | 6.3 nM | 6 of 6 |
| G61K A101N | 39 nM | 3 of 6 |
| T28W S31D F59M G61I | 2.0 nM | 1 of 6 |
| T28D R56K G61I R100Q | 2.4 nM | 6 of 6 |
| T28D R56Q A101T S107E | 3.5 nM | 2 of 6 |

Top 4 of the variants detected in all replicates, tightest first:

changes,Kd (apparent),replicates with signal
T28S S31E G61M S63D A101T,570 pM,6 of 6
T28D S31A R100E,640 pM,6 of 6
S31D R56Q A101T,770 pM,6 of 6
T28D R100Q A101E S107N,960 pM,6 of 6

The measurements come from Li et al. 2023 (doi:10.1038/s41467-023-39022-2) through the FLAb antibody collection.